Only some compounds are listed: those with a hit (about 2.3% of all), similar ones and a draw of the others.
CendR NRP1 mod: alters CendR peptide binding to human NRP-1; actives 0.85% (n = 360,000); FAM-RPARPAR peptide binding to NRP-1, fluorescence polarization; inhibition, % at 25 µM; O14786;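 active = inhibition or corrected inhibition above about 18%, plus a signal ratio from 0.5 to 1.5, limit read from the data, passing the limit was not always enough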
MC4R ag barr: human MC4R agonism via beta-arrestin | actives 0.98% (n = 360,000) | U2OS MC4R beta-arrestin complementation, luminescence; percent of melanotan II response, DMSO zero | activation, % at 8.9 µM;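 active = activation above a per-plate cutoff, the mean activation of sample wells on that plate plus 3 SD, cut at about 8% in these data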
MC4R antagonist: antagonists of human melanocortin 4 receptor (MC4R); P32245; MC4R-expressing cells, MTII-stimulated cAMP, LANCE TR-FRET; inhibition, % at 6.5 µM; actives 0.48% (n = 360,000);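 active = inhibition above its plate's cutoff, the mean of tested wells on that plate plus 3 SD, cut at about 29% in these data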;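 note: 0% = Melanotan II alone and 100% = Melanotan II plus saturating MCL0020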
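System – human MC4R-expressing U2OS cells · Also added – Melanotan II · Dosing – one concentration, 6.5 µM nominal · Timing – 30-min compound, 1-h challenge, 1-h detection, room temperature · Measured by – Eu-cAMP/anti-cAMP TR-FRET, emission 671 nm · Replicates – singlicate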
ASAP1 GAP inh: ASAP1 ArfGAP inhibition; actives 0.19% (n = 360,000); ASAP1-stimulated ARF1 GTP hydrolysis, GDP FP detection; Q9ULH1; AID 624377; inhibition, % at 16.5 µM; in the data active = inhibition above about 25%;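 note: 0% = vehicle with enzyme and substrate and 100% = no enzyme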
ARFGAP1 inhibitor: inhibits rat ARF GTPase activating protein 1. Arfgap1-stimulated ARF1 GTP hydrolysis, GDP FP detection. inhibition, % at 16.5 µM. actives 0.26% (n = 360,000). AID 651572;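 active = inhibition above a per-plate limit, mean inhibition of low control wells plus 3 SD, cut at about 25% in these data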;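 note: 0% = DMSO wells with enzyme and 100% = wells lacking Arfgap1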
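Assay system: Rat Arfgap1 GAP domain (His6, aa 1-136), purified enzyme | Buffer or medium: HEPES 25 mM pH 7.5, NaCl 150 mM, MgCl2, DTT | Schedule: GTP hydrolysis reaction 2 h at 25 °C | Signal: FP of antibody-bound GDP Alexa 633 tracer, ex 620/em 688 nm | Measure: Percent inhibition of Arfgap1-stimulated GTP hydrolysis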
Yeast UUG start: modulators of yeast start codon fidelity, primary screen, whole organism, S. cerevisiae, single point, plate reader | AID 602363, 2012 | S. cerevisiae UUG-firefly luciferase reporter, luminescence/redox ratio | activity score, % at 18.7 µM | hit rate 0.13% among 350,000;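 active = replicate mean at a twofold rise or more, about +100% in these data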;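 also: firefly luciferase made from a UUG start codon reports start codon fidelity; reporter light over untreated wells divided by growth signal over untreated wells; some hits fall short of that in this replicate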
ASAP1 inh confirm: ASAP1 inhibition confirmed. shares compounds with ASAP1 GAP inh. ASAP1-stimulated Arf1 GTPase, GDP fluorescence polarization. inhibition, % at 16.5 µM. actives 37% (n = 620). AID 624431;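 active = mean inhibition over triplicates exceeds the hit threshold derived for the earlier primary screening run, cut at about 25% in these data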
An asterisk follows results filed as active; . = not tested or not shown.

Screens by letter – A = CendR NRP1 mod; B = MC4R ag barr; C = MC4R antagonist; D = ASAP1 GAP inh; E = ARFGAP1 inhibitor; F = Yeast UUG start; G = ASAP1 inh confirm
C[C@@H]1CN([C@H](C)CO)C(=O)c2cc(C#CC3(O)CCCC3)cnc2O[C@@H]1CN(C)Cc1ccccc1
  A: . | B: . | C: . | D: . | E: . | F: -1.0 | G: .

CC(C)NC(=O)N[C@@H]1C=C[C@H](CC(=O)N2CCCCC2)O[C@@H]1CO
  A: . | B: . | C: . | D: . | E: . | F: -18.4 | G: .

COc1cc2sc3ccc(C#Cc4ccccn4)cc3c(=O)c2cc1OC
  A: -12.1 | B: 5.5 | C: 6.8 | D: 31.4* | E: 11.8 | F: -8.8 | G: 28.1*

O=C(C[n+]1cccc(C(=O)Nc2ccccc2)c1)c1ccc(Cl)cc1
  A: -7.1 | B: . | C: . | D: 25.3* | E: 3.1 | F: . | G: 3.6

CC(C)C(=O)Nc1ccc2c(c1)C(=O)N(C)[C@H]1CC[C@H](CC(=O)NC3CCCC3)O[C@H]1CO2
  A: . | B: . | C: . | D: . | E: . | F: 2.7 | G: .

Cc1ccc(-c2ccc([C@H]3[C@H](CO)N4CCCCN(C(=O)Nc5cccc(F)c5)C[C@@H]34)cc2)cc1
  A: . | B: . | C: . | D: . | E: . | F: -5.5 | G: .

COc1ccc(Br)cc1C(=O)Nc1cccc(-c2nnc(-c3ccco3)o2)c1
  A: -7.9 | B: 4.5 | C: 3.3 | D: 72.5* | E: 3.5 | F: -23.9 | G: 37.3*

CC1(C)Cc2c(c(-c3ccco3)nc3sc4c(NCCO)ncnc4c23)CO1
  A: -19.4 | B: -2.8 | C: -11.6 | D: 30.3* | E: -7.1 | F: . | G: 1.0

COc1ccc(N2C(=O)[C@H]3[C@@H](C2=O)C2c4ccccc4C=NN2[C@H]3C(=O)C(C)(C)C)cc1 (stereo partly specified)
  A: -4.8 | B: 0.1 | C: 13.0 | D: 6.1 | E: 3.8 | F: -11.3 | G: .

COc1ccc(N2C(=O)[C@@H]3[C@H](C2=O)[C@H]2c4ccccc4C=CN2[C@@H]3C(C)=O)cc1
  A: -28.9 | B: -0.9 | C: 3.2 | D: 49.2* | E: 21.9 | F: -13.6 | G: 18.0

O=C(COC(=O)c1ccc2c(c1)C(=O)N(c1cccc3ncccc13)C2=O)c1ccc(Cl)cc1
  A: -13.9 | B: 3.0 | C: -5.2 | D: 145.2* | E: 4.2 | F: -50.0 | G: 177.2*

O=C(O)c1ccc2c(c1)C(=O)N(c1ccc(C(=O)OCC(=O)c3ccccc3)cc1)C2=O
  A: -13.1 | B: -0.8 | C: 12.9 | D: 2.7 | E: 2.0 | F: -7.6 | G: .

Cc1noc(C)c1S(=O)(=O)Nc1cccc2c1O[C@@H](CN(C)S(=O)(=O)c1cn(C)cn1)[C@@H](C)CN([C@@H](C)CO)C2=O
  A: . | B: . | C: . | D: . | E: . | F: 5.9 | G: .

CC1CCCC(C)N1C(=O)COC(=O)CCC(=O)c1ccc(F)cc1 (stereo unspecified)
  A: 6.3 | B: -1.4 | C: 2.3 | D: 28.9* | E: -3.6 | F: -13.7 | G: 1.8

CC1CCN(C(=O)COC(=O)CCC(=O)c2ccc(F)cc2)CC1
  A: -2.4 | B: 0.1 | C: -3.7 | D: 8.2 | E: -10.4 | F: -28.8 | G: .

CN(CC(=O)Nc1cccc(F)c1)C(=O)CCNC(=O)c1ccco1
  A: -6.2 | B: -0.4 | C: 3.8 | D: -10.2 | E: -0.4 | F: . | G: .

CN(Cc1cccc(Cl)c1Cl)C(=O)CCNC(=O)c1ccco1
  A: 0.7 | B: -0.2 | C: 7.2 | D: 29.1* | E: -3.8 | F: 0.6 | G: 1.2

CC(C)C[C@H](NC(=O)c1nc[nH]c1C(=O)NCCNC(=O)OC(C)(C)C)C(=O)CNCCNC(=O)c1[nH]cnc1C(=O)N[C@@H](C)C(=O)OC(C)(C)C
  A: 0.1 | B: 1.3 | C: 12.3 | D: -14.6 | E: -4.5 | F: 19.2 | G: .

CC(C)C[C@@H](CNC(=O)OC(C)(C)C)NC(=O)c1nc[nH]c1C(=O)N[C@@H](CC(C)C)C(=O)CNC[C@H](CC(C)C)NC(=O)c1nc[nH]c1C(=O)N[C@@H](Cc1c[nH]c2ccccc12)C(=O)OC(C)(C)C
  A: 22.8* | B: -0.1 | C: -1.1 | D: 32.1* | E: 9.8 | F: -17.4 | G: 18.8

O=C(Nc1ccc2c(c1)OCCO2)C(c1ccc(C(F)(F)F)cc1)n1c(=O)c(-c2cc3ccccc3[nH]2)nc2ccccc21 (stereo unspecified)
  A: -7.6 | B: . | C: . | D: 6.7 | E: 10.3 | F: . | G: .

O=C(Nc1ccc2c(c1)OCCO2)C(c1ccncc1)n1c(=O)c(-c2cc3ccccc3[nH]2)nc2ccccc21 (stereo unspecified)
  A: -16.5 | B: . | C: . | D: 32.6* | E: 7.7 | F: . | G: 15.9

C[C@H](CO)N1C[C@H](C)[C@@H](CN(C)Cc2ccc3c(c2)OCCN3C)OCc2cn(nn2)CCCC1=O
  A: . | B: . | C: . | D: . | E: . | F: 5.2 | G: .

NC(=O)CN1C(=O)NC2(CCCc3ccccc32)C1=O (stereo unspecified)
  A: 4.1 | B: -1.5 | C: -2.8 | D: 25.1* | E: 1.5 | F: -10.5 | G: 5.0

CC(=O)CN1C(=O)NC2(CCCc3ccccc32)C1=O (stereo unspecified)
  A: 8.8 | B: -1.8 | C: 7.6 | D: -4.5 | E: 8.2 | F: -14.7 | G: .

C[C@H](CO)N1C[C@H](C)[C@H](CN(C)C(=O)C2CCCCC2)Oc2ncc(-c3ccncc3)cc2C1=O
  A: . | B: . | C: . | D: . | E: . | F: -8.4 | G: .

CCC(=O)N1[C@@H]2CN(S(=O)(=O)c3ccccc3F)c3ccccc3[C@@H]2[C@@H]1CO
  A: . | B: . | C: . | D: . | E: . | F: 9.6 | G: .

CCOC(=O)c1sc(N(Cc2ccccc2)C(=O)COC(=O)c2ccc(O)cc2)nc1C
  A: -0.5 | B: 7.0 | C: 10.8 | D: 26.5* | E: 15.5 | F: 8.9 | G: 21.3

C[C@H](CO)N1C[C@H](C)[C@H](CN(C)C(=O)Nc2ccc(F)cc2)Oc2c(NC(=O)c3ccc(-c4nccs4)cc3)cccc2C1=O
  A: 6.5 | B: 1.1 | C: 7.8 | D: 31.3* | E: 6.3 | F: -2.1 | G: 9.8

COc1ccc(NC(=O)N(C)C[C@@H]2OCCCC[C@H](C)Oc3ccc(NC(=O)CCC(F)(F)F)cc3C(=O)N([C@H](C)CO)C[C@@H]2C)cc1
  A: . | B: . | C: . | D: . | E: . | F: 33.2 | G: .

Cc1ccc(-n2nc3c(c2NC(=O)c2ccco2)CS(=O)C3)cc1 (stereo unspecified)
  A: 14.2 | B: -2.6 | C: 13.8 | D: 24.8* | E: -8.2 | F: -5.3 | G: -2.0

Three of the compounds above, field by field.
CN(Cc1cccc(Cl)c1Cl)C(=O)CCNC(=O)c1ccco1
  CendR NRP1 mod: 0.7
  MC4R ag barr: -0.2
  MC4R antagonist: 7.2
  ASAP1 GAP inh: 29.1*
  ARFGAP1 inhibitor: -3.8
  Yeast UUG start: 0.6
  ASAP1 inh confirm: 1.2

CC(C)C[C@H](NC(=O)c1nc[nH]c1C(=O)NCCNC(=O)OC(C)(C)C)C(=O)CNCCNC(=O)c1[nH]cnc1C(=O)N[C@@H](C)C(=O)OC(C)(C)C
  CendR NRP1 mod: 0.1
  MC4R ag barr: 1.3
  MC4R antagonist: 12.3
  ASAP1 GAP inh: -14.6
  ARFGAP1 inhibitor: -4.5
  Yeast UUG start: 19.2
  ASAP1 inh confirm: .

CC(C)C[C@@H](CNC(=O)OC(C)(C)C)NC(=O)c1nc[nH]c1C(=O)N[C@@H](CC(C)C)C(=O)CNC[C@H](CC(C)C)NC(=O)c1nc[nH]c1C(=O)N[C@@H](Cc1c[nH]c2ccccc12)C(=O)OC(C)(C)C
  CendR NRP1 mod: 22.8*
  MC4R ag barr: -0.1
  MC4R antagonist: -1.1
  ASAP1 GAP inh: 32.1*
  ARFGAP1 inhibitor: 9.8
  Yeast UUG start: -17.4
  ASAP1 inh confirm: 18.8

Remaining list, next part.
Screens by letter – A = CendR NRP1 mod; B = MC4R ag barr; C = MC4R antagonist; D = ASAP1 GAP inh; E = ARFGAP1 inhibitor; F = Yeast UUG start; G = ASAP1 inh confirm
COCCNC(=S)N=Nc1c(O)[nH]c2ccc([N+](=O)[O-])cc12
  A: -4.2 | B: 0.3 | C: -5.1 | D: 29.6* | E: 2.0 | F: -7.7 | G: 41.0*

CC(C)n1c(NCc2cc(Cl)ccc2O)nc2ccccc21
  A: 10.2 | B: 3.4 | C: 6.5 | D: 25.7* | E: 5.9 | F: -10.4 | G: 13.9

C[C@@H]1CN([C@H](C)CO)C(=O)c2cc(NC(=O)Nc3ccc(F)cc3)ccc2O[C@H]1CN(C)S(=O)(=O)c1cccs1
  A: . | B: . | C: . | D: . | E: . | F: -2.5 | G: .

O=C1C(=C(I)I)c2ccccc2-c2ccccc21
  A: 20.2 | B: -0.5 | C: 22.3 | D: 38.1* | E: -9.3 | F: . | G: -14.4

O=C(O)c1cccc2c1C(=O)c1ccccc1-2
  A: -4.4 | B: -1.1 | C: -2.3 | D: 0.9 | E: 4.1 | F: . | G: .

Cc1cc(OCC(=O)Nc2ccc3oc(-c4ccncc4)nc3c2)ccc1Cl
  A: -8.1 | B: -1.2 | C: 13.5 | D: 27.7* | E: 13.8 | F: -21.0 | G: 131.4*

CN(C)C(=O)c1ccc(-c2ccc3c(c2)[C@@H]2[C@@H](CCN2S(=O)(=O)c2cn(C)cn2)[C@H](CO)N3)cc1
  A: . | B: . | C: . | D: . | E: . | F: -14.1 | G: .

CC1=[N+](C)c2c(ccc3cccnc23)C1(C)C
  A: -1.6 | B: -0.6 | C: 7.4 | D: 50.9* | E: 70.5* | F: . | G: 31.8*

COc1ccc(NC(=O)c2cc3c(-c4ccc(OC)c(OC)c4)nn(C)c3s2)cc1OC
  A: -3.8 | B: 0.0 | C: 10.0 | D: 32.0* | E: 5.1 | F: -18.0 | G: 57.7*

Source: PubChem
